Test results reported in patent US20120129928A1, “Chlorine-Free Liquid Microbicide Treatment” (University of Georgia Research Foundation, Inc., priority 2010, published 2012).

Legend:
various yeast species = assay: Effect of levulinic acids plus SDS at 21° C. on various yeast species; format: cell-based; conditions: 0 min (delayed by 5 to 10 seconds)
various mold species = assay: Effect of levulinic acids plus SDS at 21° C. on various mold species; conditions: for Mold counts at min: 0: 0 min (delayed by 5 to 10 seconds); for Mold counts at min: 1: 1 min; for Mold counts at min: 2: 2 min; for Mold counts at min: 5: 5 min; for Mold counts at min: 10: 10 min; for Mold counts at min: 20: 20 min; for Mold counts at min: 30: 30 min; for Mold counts at min: 60: 60 min

CCCCCCCCCCCCOS(=O)(=O)[O-].[Na+] [1.0% SDS]
Yeast counts at min: 0 (various yeast species; Candida magnoliae): 3.5 log CFU/ml
Yeast counts at min: 0 (various yeast species; Debaryomyces hansenii): 4.5 log CFU/ml
Yeast counts at min: 0 (various yeast species; Geotrichum candidum): 3.6 log CFU/ml
Yeast counts at min: 0 (various yeast species; Saccharomyces cerevisiae): 2.7 log CFU/ml
Yeast counts at min: 0 (various yeast species; Zygosaccharomyces bailii): 4.6 log CFU/ml

CC(=O)CCC(=O)O [2% levulinic acid]
Yeast counts at min: 0 (various yeast species; Zygosaccharomyces bailii): 5.4 log CFU/ml

CCCCCCCCCCCCOS(=O)(=O)[O-].[Na+] [2.0% SDS]
Mold counts at min: 0 (various mold species; Mucor hiemalis): 6.0 log CFU/ml
Mold counts at min: 1 (various mold species; Mucor hiemalis): 5.8 log CFU/ml
Mold counts at min: 2 (various mold species; Mucor hiemalis): 5.8 log CFU/ml
Mold counts at min: 5 (various mold species; Mucor hiemalis): 6.0 log CFU/ml
Mold counts at min: 10 (various mold species; Mucor hiemalis): 5.9 log CFU/ml
Mold counts at min: 20 (various mold species; Mucor hiemalis): 5.8 log CFU/ml
Mold counts at min: 30 (various mold species; Mucor hiemalis): 5.8 log CFU/ml
Mold counts at min: 60 (various mold species; Mucor hiemalis): 5.4 log CFU/ml
Mold counts at min: 0 (various mold species; Penicillium expansum): 4.2 log CFU/ml
Mold counts at min: 1 (various mold species; Penicillium expansum): 4.1 log CFU/ml
Mold counts at min: 2 (various mold species; Penicillium expansum): 3.8 log CFU/ml
Mold counts at min: 5 (various mold species; Penicillium expansum): 3.4 log CFU/ml
Mold counts at min: 10 (various mold species; Penicillium expansum): 3.5 log CFU/ml
Mold counts at min: 20 (various mold species; Penicillium expansum): 3.5 log CFU/ml
Mold counts at min: 30 (various mold species; Penicillium expansum): 3.5 log CFU/ml
Mold counts at min: 60 (various mold species; Penicillium expansum): 3.6 log CFU/ml
Mold counts at min: 0 (various mold species; Penicillium pubeseus): 4.4 log CFU/ml
Mold counts at min: 1 (various mold species; Penicillium pubeseus): 4.3 log CFU/ml
Mold counts at min: 2 (various mold species; Penicillium pubeseus): 4.4 log CFU/ml
Mold counts at min: 5 (various mold species; Penicillium pubeseus): 4.4 log CFU/ml
Mold counts at min: 10 (various mold species; Penicillium pubeseus): 4.5 log CFU/ml
Mold counts at min: 20 (various mold species; Penicillium pubeseus): 4.5 log CFU/ml
Mold counts at min: 30 (various mold species; Penicillium pubeseus): 4.4 log CFU/ml
Mold counts at min: 60 (various mold species; Penicillium pubeseus): 4.4 log CFU/ml

CC(=O)CCC(=O)O [2.0% levulinic acids]
Yeast counts at min: 0 (various yeast species; Candida magnoliae): 6.0 log CFU/ml

CC(=O)CCC(=O)O [3.0% levulinic acids]
Mold counts at min: 0 (various mold species; Mucor hiemalis): 6.1 log CFU/ml
Mold counts at min: 1 (various mold species; Mucor hiemalis): 6.2 log CFU/ml
Mold counts at min: 2 (various mold species; Mucor hiemalis): 6.2 log CFU/ml
Mold counts at min: 5 (various mold species; Mucor hiemalis): 6.0 log CFU/ml
Mold counts at min: 10 (various mold species; Mucor hiemalis): 5.8 log CFU/ml
Mold counts at min: 20 (various mold species; Mucor hiemalis): 5.1 log CFU/ml
Mold counts at min: 30 (various mold species; Mucor hiemalis): 4.8 log CFU/ml
Mold counts at min: 60 (various mold species; Mucor hiemalis): 4.1 log CFU/ml
Mold counts at min: 0 (various mold species; Penicillium expansum): 4.3 log CFU/ml
Mold counts at min: 1 (various mold species; Penicillium expansum): 4.4 log CFU/ml
Mold counts at min: 2 (various mold species; Penicillium expansum): 4.2 log CFU/ml
Mold counts at min: 5 (various mold species; Penicillium expansum): 4.0 log CFU/ml
Mold counts at min: 10 (various mold species; Penicillium expansum): 3.7 log CFU/ml
Mold counts at min: 20 (various mold species; Penicillium expansum): 3.3 log CFU/ml
Mold counts at min: 30 (various mold species; Penicillium expansum): 3.3 log CFU/ml
Mold counts at min: 60 (various mold species; Penicillium expansum): 2.4 log CFU/ml

CC(=O)CCC(=O)O [levulinic acid]
Yeast counts at min: 0 (various yeast species; Debaryomyces hansenii): 4.9 log CFU/ml
Yeast counts at min: 0 (various yeast species; Geotrichum candidum): 4.6 log CFU/ml
Yeast counts at min: 0 (various yeast species; Saccharomyces cerevisiae): 5.4 log CFU/ml
Mold counts at min: 0 (various mold species; Penicillium pubeseus): 5.2 log CFU/ml
Mold counts at min: 1 (various mold species; Penicillium pubeseus): 4.9 log CFU/ml
Mold counts at min: 2 (various mold species; Penicillium pubeseus): 4.8 log CFU/ml
Mold counts at min: 5 (various mold species; Penicillium pubeseus): 5.2 log CFU/ml
Mold counts at min: 10 (various mold species; Penicillium pubeseus): 4.0 log CFU/ml
Mold counts at min: 20 (various mold species; Penicillium pubeseus): 3.2 log CFU/ml
Mold counts at min: 30 (various mold species; Penicillium pubeseus): 2.7 log CFU/ml
Mold counts at min: 60 (various mold species; Penicillium pubeseus): 1.7 log CFU/ml
